Biological target: 5-hydroxytryptamine receptor 7 (Rattus norvegicus, UniProt P32305)

Protein sequences, listed by entry. Tags and fused reporters are not part of them.
UniProt P32305, whole entry: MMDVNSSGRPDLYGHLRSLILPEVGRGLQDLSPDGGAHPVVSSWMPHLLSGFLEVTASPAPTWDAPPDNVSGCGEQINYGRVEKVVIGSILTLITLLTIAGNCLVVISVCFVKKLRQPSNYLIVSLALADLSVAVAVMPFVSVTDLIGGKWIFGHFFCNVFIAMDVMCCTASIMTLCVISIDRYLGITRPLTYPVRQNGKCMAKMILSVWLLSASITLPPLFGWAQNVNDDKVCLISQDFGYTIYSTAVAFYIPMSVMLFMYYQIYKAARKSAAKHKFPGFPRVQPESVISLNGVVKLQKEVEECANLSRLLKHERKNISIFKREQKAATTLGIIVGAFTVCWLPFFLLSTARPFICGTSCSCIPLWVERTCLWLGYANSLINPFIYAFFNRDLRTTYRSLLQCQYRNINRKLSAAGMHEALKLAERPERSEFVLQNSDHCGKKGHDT

Compound: CCN(CC)C(=O)[C@@H]1C=C2c3cccc4[nH]cc(c34)C[C@H]2N(C)C1 [(4R,7R)-N,N-diethyl-6-methyl-6,11-diazatetracyclo[7.6.1.0^{2,7}.0^{12,16}]hexadeca-1(16),2,9,12,14-pentaene-4-carboxamide]
- Ki: 7.94 nM

Compound: COc1ccc2[nH]cc(CCN)c2c1 [tryptamine, 5-Methoxy]
- Ki: 0.63 nM
